Target: hBPGM (Homo sapiens (Human), UniProt P07738)
Test: BPGM Synthase Assay
Format: biochemical
Conditions: read-out: huBPGM: synthase Enzyme IC50; Table 6 additional results
Description: Example B1. BPGM Synthase Assay […]
To the assay plate was added Enzyme Solution (20 uL) to columns 2-22 and 24 of the assay plate. […] During this time period, the NADH fluorescence was read at ex: 360/em: 460. […] The resorufin fluorescence was then read at ex:544/em:590.

Chains of the proteins cited; added tags and fusions are not shown.
UniProt P07738, whole entry: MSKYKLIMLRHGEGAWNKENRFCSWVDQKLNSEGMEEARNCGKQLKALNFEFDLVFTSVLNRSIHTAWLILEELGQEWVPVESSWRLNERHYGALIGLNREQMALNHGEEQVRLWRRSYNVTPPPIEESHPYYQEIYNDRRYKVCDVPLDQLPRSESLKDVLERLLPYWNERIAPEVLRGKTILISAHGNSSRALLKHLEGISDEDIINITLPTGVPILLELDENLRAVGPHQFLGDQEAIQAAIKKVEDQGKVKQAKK

Cc1ccc(C#N)c(NC(=O)c2ccn(-c3cccc(-c4ccc(C(=O)O)c(O)c4)c3)n2)n1
IC50: 1800 nM

Source: patent US20230348450A1, “CARBOXYLIC ACID-CONTAINING COMPOUNDS AS MODULATORS OF BIS-PHOSPHOGLYCERATE MUTASE FOR THE TREATMENT OF SICKLE CELL DISEASE” (Genzyme Corporation, priority 2020, published 2023)
